{"source": "paper PMC5774622", "about": "(Biochimie, 2017)", "key": {"CN [1]": {"molecular_target": "CN (Rattus norvegicus, UniProt P63100+P63329)", "experiment": "CN phosphatase colorimetric assay with RII phosphopeptide as substrate", "assay_type": "biochemical"}, "[2]": {"molecular_target": "FAM-labeled TFEB-YLAVP peptide (mutant)", "experiment": "MST"}, "[3]": {"molecular_target": "FAM-labeled TFEB-YLENP peptide", "experiment": "MST"}, "CN [4]": {"test_system": "CN", "conditions": "cited from earlier work"}, "[5]": {"test_system": "NFAT activation (NFATc1-c3) in T cells", "conditions": "cited from earlier work"}, "CN [6]": {"molecular_target": "CN", "conditions": "read-out: Kd for binding to CN; cited from earlier work"}}, "data": [{"molecule": "CC(C)C[C@H](NC(=O)[C@H](Cc1ccc(O)cc1)NC(=O)[C@H](CCC(N)=O)NC(=O)[C@@H](N)CC(=O)O)C(=O)N[C@@H](C)C(=O)N[C@H](C(=O)N1CCC[C@H]1C(=O)N[C@@H](CCC(N)=O)C(=O)N[C@@H](Cc1c[nH]cn1)C(=O)N1CCC[C@H]1C(=O)N[C@@H](Cc1ccc(O)cc1)C(=O)N[C@@H](CCC(N)=O)C(=O)N[C@@H](Cc1c[nH]c2ccccc12)C(=O)N[C@@H](C)C(=O)N[C@@H](CCCCN)C(=O)O)C(C)C", "note": "[NFATc1-YLAVP]", "values": [{"measurement": "IC50", "setting": "CN [1]", "result": 9, "unit": "µM"}]}, {"molecule": "Calcineurin with calmodulin (CN; CNA:CNB:CaM, 1:1:2) (from UniProt P63100 1-170; P62157 1-149) (complex)", "values": [{"measurement": "Kd", "setting": "[2]", "result": 2.4, "unit": "µM"}, {"measurement": "Kd", "setting": "[3]", "result": 4.5, "unit": "µM"}]}, {"molecule": "MAGPHPVIVITGPHEE", "values": [{"measurement": "effect on CN activity", "setting": "CN [4]", "result": "without affecting the CN activity"}, {"measurement": "NFAT activation (NFATc1-c3) and NFAT-dependent gene expression in T cells", "setting": "[5]", "result": "potently inhibited"}, {"measurement": "Kd", "setting": "CN [6]", "result": 0.5, "unit": "µM"}]}]}
